ChEMBL document CHEMBL4673207, “Recent advances in the discovery of potent and selective HDAC6 inhibitors” (Eur J Med Chem, 2018)

Tests used:
[1] = species on record: Homo sapiens; test: Selectivity ratio of IC50 for human HDAC8 to IC50 for human HDAC6
[2] = species on record: Homo sapiens; test: Selectivity ratio of IC50 for human HDAC1 to IC50 for human HDAC6
[3] = species on record: Homo sapiens; test: Selectivity ratio of IC50 for human HDAC2 to IC50 for human HDAC6
[4] = species on record: Homo sapiens; test: Selectivity ratio of IC50 for human HDAC11 to IC50 for human HDAC6
[5] = species on record: Homo sapiens; test: Selectivity ratio of IC50 for human HDAC4 to IC50 for human HDAC6

Ratio IC50 [1] | Ratio IC50 [2] | Ratio IC50 [3] | Ratio IC50 [4] | Ratio IC50 [5] | SMILES
12 | 137 | 443 |  |  | O=C(NO)c1ccc(Cn2c(=O)c(F)cn(C3CCCO3)c2=O)cc1 (stereo unspecified)
 |  | 126 | 40 | > 6290 | CN(C)c1ccc(C(=O)N(CC(=O)NC2CCCCC2)Cc2ccc(C(=O)NO)cc2)cc1
